This is an account of results in patent US20110110924A1, “Resistin as a Marker and Therapeutic Target for Cardiovascular Disease” (priority 2004, published 2011).

The subject of experiment [1] is resistin protein secretion by human macrophages. The experiment in a line: Resistin protein secretion by primary human macrophages (ELISA). The conditions noted are these: TNFα treatment of primary human macrophages. Format: cell-based. The procedure:
(§1) Peripheral blood mononuclear cells were isolated from whole blood of healthy donors following apheresis and elutriation. Greater than 90% of these monocytes expressed CD14 and HLA-DR. Cells were plated in 24 well plates at a density of 10^6 cells per well, allowed to adhere for 4 hours, then washed with Dulbecco's Modified Eagles Medium (DMEM) and further cultured in 10% FBS in DMEM supplemented with 5 ng/ml GM-CSF (Sigma) to promote macrophage differentiation. All experiments were performed after overnight equilibration with macrophage serum free medium (Gibco/Invitrogen) supplemented with 5 ng/ml GM-CSF. […]
Resistin concentrations, in cell media and human plasma, were assessed with a commercially available ELISA (Linco) and normalized to cell protein. […] Direct comparison of standard curves generated by the Linco kit with another commercially available resistin ELISA (Biovendor) yielded high correlation (rho=0.99, p<0.001), except that the Biovendor results were approximately 30% lower than those determined with the Linco assay. […] Resistin levels in 40 plasma samples were measured using both Linco and Biovendor ELISA kits, with moderate correlation (rho=0.66). Levels of soluble TNFα Receptor-2 were measured using a commercially available immunoassay (R&D Systems). […]
On the technique in general: An ELISA detects its analyte on a solid surface through an enzyme-linked reagent.

The subject of experiment [2] is resistin mRNA in primary human macrophages. Put plainly: Resistin mRNA expression in primary human macrophages (real time PCR). Format: cell-based. As to conditions: TNFα treatment of primary human macrophages. The procedure: as §1, with “GM-CSF. Cells were treated as indicated with LPS (Sigma), aspirin (Sigma), SN50 and control peptide (Biomol), MG132, PD98059, SB20358 (Calbiochem), and TNFα (R&D Systems).” for “GM-CSF.”
RNA was isolated using RNeasy® Mini Kit (Qiagen), then subjected to DNAse digestion followed by reverse transcription (Invitrogen). mRNA transcripts were quantified by the dual-labeled fluorogenic probe method for real time PCR, using a Prism® 7900 thermal cycler and sequence detector (Perkin Elmer/ABI). […]
Primer and probe for TNFα was obtained from ABI. […] The fold change of the gene of interest expression relative to the vehicle treated group was expressed as 2^− δδ^CT, in which δδ CT equals the δCT of the compound treated group minus δCT of the chosen control group, which was normalized to 1.
A general note: In qPCR the cycle at which signal appears reflects the starting amount.

With “TNFα: endotoxin-induced inflammatory cytokine (R&D Systems)”, the “effect on resistin secretion” value in experiment [1] is on record as “increased in parallel”. Besides, in experiment [2], the “effect on resistin gene expression” value is reported as “induced”.
